# Results taken from paper PMC7244308 (Science Advances, 2020).
# Protein sequences, listed by entry. Tags and fused reporters are not part of them. Lines headed by an entry give the natural chain unless they say otherwise; changes in a name come on top. Residues count along the entry.
# UniProt Q7ZAK5, whole entry, looked up: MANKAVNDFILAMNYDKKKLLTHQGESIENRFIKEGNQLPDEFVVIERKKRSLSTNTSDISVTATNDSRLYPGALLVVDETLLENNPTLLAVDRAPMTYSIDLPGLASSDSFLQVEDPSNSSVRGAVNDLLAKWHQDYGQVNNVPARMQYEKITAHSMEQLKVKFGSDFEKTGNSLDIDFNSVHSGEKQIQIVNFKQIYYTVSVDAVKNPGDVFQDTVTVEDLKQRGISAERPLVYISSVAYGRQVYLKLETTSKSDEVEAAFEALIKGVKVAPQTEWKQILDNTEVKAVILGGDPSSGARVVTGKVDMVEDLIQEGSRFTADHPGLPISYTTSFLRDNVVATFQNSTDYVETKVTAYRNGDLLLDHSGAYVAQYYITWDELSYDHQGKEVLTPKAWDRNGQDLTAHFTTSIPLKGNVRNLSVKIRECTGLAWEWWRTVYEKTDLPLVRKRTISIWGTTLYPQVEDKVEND
# UniProt P0C0I3, 34-571 limits assumed: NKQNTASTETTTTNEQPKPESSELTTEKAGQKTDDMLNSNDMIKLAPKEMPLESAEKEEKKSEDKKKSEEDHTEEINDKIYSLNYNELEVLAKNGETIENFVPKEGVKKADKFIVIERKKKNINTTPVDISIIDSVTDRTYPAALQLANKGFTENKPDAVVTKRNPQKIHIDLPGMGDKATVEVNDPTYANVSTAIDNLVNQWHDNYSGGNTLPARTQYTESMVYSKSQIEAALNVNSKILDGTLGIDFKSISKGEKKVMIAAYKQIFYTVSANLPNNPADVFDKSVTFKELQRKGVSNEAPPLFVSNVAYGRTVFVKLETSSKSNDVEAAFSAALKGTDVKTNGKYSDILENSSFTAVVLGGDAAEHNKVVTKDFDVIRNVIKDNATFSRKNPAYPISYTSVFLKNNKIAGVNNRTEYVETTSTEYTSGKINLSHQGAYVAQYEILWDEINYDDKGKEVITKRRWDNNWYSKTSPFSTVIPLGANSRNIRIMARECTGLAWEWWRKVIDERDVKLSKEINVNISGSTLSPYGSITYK
# UniProt P13128, 415-529 limits assumed: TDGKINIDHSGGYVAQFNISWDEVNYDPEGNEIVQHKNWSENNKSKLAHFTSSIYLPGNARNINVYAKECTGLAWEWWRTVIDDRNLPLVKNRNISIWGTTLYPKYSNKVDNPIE
# UniProt Q9LCB8: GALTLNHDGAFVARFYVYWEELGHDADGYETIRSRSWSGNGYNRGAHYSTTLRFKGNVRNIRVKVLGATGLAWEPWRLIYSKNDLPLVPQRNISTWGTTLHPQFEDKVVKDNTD
# “And” between values parts separate entries of the source, which are not always exact repeats. Equal values may be shown once.
# Key:
# Ply = Ply (Streptococcus pneumoniae, UniProt Q7ZAK5); format: binding
# SLO = SLO (Streptococcus pyogenes serotype M1, UniProt P0C0I3); format: binding
# LLY (−LD) = LLY (−LD) (Streptococcus mitis, UniProt Q2PHL4); format: binding
# LLO D4 = LLO D4 (Listeria monocytogenes serovar 1/2a, UniProt P13128); format: binding
# ILY = ILY (Streptococcus intermedius, UniProt Q9LCB8); format: binding
# [1] = format: physicochemical
substance,measurement,setting,value
pregnenolone sulfate (sodium salt) [PS],Kd,Ply,~0.4 nM and 0.4 nM
same,Kd,SLO,52 nM
same,Kd,LLY (−LD),997 nM
same,Kd,LLO D4,214 nM
same,Kd,ILY,588 nM
same,solubility,[1],up to 500 μM
